Results published in PMC8624523, “Novel GPR120 Agonists with Improved Pharmacokinetic Profiles for the Treatment of Type 2 Diabetes” (Molecules, 2021).

Tests used:
DIO mice = test: Anti-hyperglycemic effects (oGTT) in diet-induced obese (DIO) mice; design: species or system C57BL/6 mice; conditions: mouse, in vivo, 20 mg/kg
Text: After 1 week of adaptation, male C57BL/6 mice weighing 18–22 g, were fed a high-fat diet (45% calories from fat, from Mediscience Ltd., Yangzhou, China) ad libitum for an additional 8 weeks to induce insulin resistance. […] Blood samples were collected and measured in accordance with the oral glucose tolerance test in normal ICR mice.

hGPR120 = test system: hGPR120; design: method as in PMID 22519963, PMID 29100735, PMID 28642104, PMID 28947942, PMID 28374589; conditions: cited from earlier work

Compound	insulin levels at 30 min after oral administration of glucose (DIO mice)	EC50 (hGPR120) [µM]
Cc1ccc(-c2ccc(F)cc2COc2ccc(CCC(=O)O)cc2)cc1 [TUG-891, reference compound]	significantly increased insulin levels	0.044
[2H]C([2H])(CC(=O)O)c1ccc(OCc2cc(F)ccc2-c2ccc(C)cc2)cc1 [Compound 2]		0.0631
